Measured values from patent EP3970494A1 (priority 2020, dated 2022).

Experiments:
[1] = test system: Phakopsora pachyrhizi; assay: Protective control of soybean rust on soybeans, inoculation 2 days after treatment (PHAKPA P2); assay type: in vivo; conditions: soybean seedlings inoculated 2 days after treatment, strain with F129L in cytochrome b, % diseased leaf area, untreated controls usually higher than 85 %; for PHAKPA Disease level (%) P2 at 4 ppm: 4 ppm spray; for PHAKPA Disease level (%) P2 at 16 ppm: 16 ppm spray
[2] = test system: Phakopsora pachyrhizi; assay: Protective control of soybean rust on soybeans, inoculation six days after treatment (PHAKPA P6); assay type: in vivo; conditions: soybean seedlings inoculated six days after treatment, strain with F129L in cytochrome b, % diseased leaf area, untreated controls usually higher than 85 %; for PHAKPA Disease level (%) P6 at 4 ppm: 4 ppm spray; for PHAKPA Disease level (%) P6 at 16 ppm: 16 ppm spray

CNC(=O)/C(=N/OC)c1cccc(C)c1CO/N=C(\C)c1cc(C(F)(F)F)cc(Cl)n1 [Example 43]
PHAKPA Disease level (%) P2 at 4 ppm [1]: 13% | PHAKPA Disease level (%) P2 at 16 ppm [1]: 1% | PHAKPA Disease level (%) P6 at 4 ppm [2]: 32% | PHAKPA Disease level (%) P6 at 16 ppm [2]: 3%

CO/N=C(/C(=O)OC)c1cccc(C)c1CO/N=C(\C)c1cc(C(F)(F)F)cc(C)n1 [Example 46]
PHAKPA Disease level (%) P2 at 4 ppm [1]: 48% | PHAKPA Disease level (%) P2 at 16 ppm [1]: 21% | PHAKPA Disease level (%) P6 at 4 ppm [2]: 48% | PHAKPA Disease level (%) P6 at 16 ppm [2]: 9%

CO/N=C(/C(=O)OC)c1cccc(C)c1CO/N=C(\C)c1ccnc(C(F)(F)F)c1 [Example 47]
PHAKPA Disease level (%) P2 at 4 ppm [1]: 97% | PHAKPA Disease level (%) P2 at 16 ppm [1]: 87% | PHAKPA Disease level (%) P6 at 4 ppm [2]: 83% | PHAKPA Disease level (%) P6 at 16 ppm [2]: 90%

CNC(=O)/C(=N/OC)c1cccc(C)c1CO/N=C(\C)c1ccnc(C(F)(F)F)c1 [Example 48]
PHAKPA Disease level (%) P2 at 4 ppm [1]: 57% | PHAKPA Disease level (%) P2 at 16 ppm [1]: 4% | PHAKPA Disease level (%) P6 at 4 ppm [2]: 83% | PHAKPA Disease level (%) P6 at 16 ppm [2]: 33%

CO/N=C(/C(=O)OC)c1cccc(C)c1CO/N=C(\C)c1cn(C)nc1C(F)F [Example 49]
PHAKPA Disease level (%) P2 at 4 ppm [1]: 100% | PHAKPA Disease level (%) P2 at 16 ppm [1]: 100% | PHAKPA Disease level (%) P6 at 4 ppm [2]: 90% | PHAKPA Disease level (%) P6 at 16 ppm [2]: 83%

CNC(=O)/C(=N/OC)c1cccc(C)c1CO/N=C(\C)c1cn(C)nc1C(F)F [Example 50]
PHAKPA Disease level (%) P2 at 4 ppm [1]: 97% | PHAKPA Disease level (%) P2 at 16 ppm [1]: 47% | PHAKPA Disease level (%) P6 at 4 ppm [2]: 83% | PHAKPA Disease level (%) P6 at 16 ppm [2]: 67%

CNC(=O)/C(=N/OC)c1cccc(C)c1CO/N=C(\C)c1cn(C)nc1C(F)(F)F [Example 52]
PHAKPA Disease level (%) P2 at 4 ppm [1]: 77% | PHAKPA Disease level (%) P2 at 16 ppm [1]: 17% | PHAKPA Disease level (%) P6 at 4 ppm [2]: 73% | PHAKPA Disease level (%) P6 at 16 ppm [2]: 37%

CNC(=O)/C(=N/OC)c1cccc(C)c1CO/N=C(\C)c1ncc(C(F)(F)F)s1 [Example 53, (2E)-2-Methoxyimino-N-methyl-2-[3-methyl-2-[[(E)-1-[5-(trifluoromethyl)thiazol-2-yl]ethylideneamino]oxymethyl]phenyl]acetamide]
PHAKPA Disease level (%) P2 at 4 ppm [1]: 11% | PHAKPA Disease level (%) P2 at 16 ppm [1]: 1% | PHAKPA Disease level (%) P6 at 4 ppm [2]: 12% | PHAKPA Disease level (%) P6 at 16 ppm [2]: 1%

CO/N=C(/C(=O)OC)c1cccc(C)c1CO/N=C(\C)c1cc(C#N)ccn1 [Example 54]
PHAKPA Disease level (%) P2 at 4 ppm [1]: 95% | PHAKPA Disease level (%) P2 at 16 ppm [1]: 6% | PHAKPA Disease level (%) P6 at 4 ppm [2]: 95% | PHAKPA Disease level (%) P6 at 16 ppm [2]: 14%

CNC(=O)/C(=N/OC)c1cccc(C)c1CO/N=C(\C)c1cc(C#N)ccn1 [Example 55]
PHAKPA Disease level (%) P2 at 4 ppm [1]: 25% | PHAKPA Disease level (%) P2 at 16 ppm [1]: 5% | PHAKPA Disease level (%) P6 at 4 ppm [2]: 75% | PHAKPA Disease level (%) P6 at 16 ppm [2]: 33%

CO/N=C(/C(=O)OC)c1cccc(C)c1CO/N=C(\C)c1cc(C(F)(F)F)nc(C)n1 [Example 57]
PHAKPA Disease level (%) P2 at 4 ppm [1]: 100% | PHAKPA Disease level (%) P2 at 16 ppm [1]: 12% | PHAKPA Disease level (%) P6 at 4 ppm [2]: 93% | PHAKPA Disease level (%) P6 at 16 ppm [2]: 12%

C#Cc1cnc(/C(C)=N/OCc2c(C)cccc2/C(=N\OC)C(=O)OC)s1 [Example 59]
PHAKPA Disease level (%) P2 at 4 ppm [1]: 87% | PHAKPA Disease level (%) P2 at 16 ppm [1]: 30% | PHAKPA Disease level (%) P6 at 4 ppm [2]: 77% | PHAKPA Disease level (%) P6 at 16 ppm [2]: 37%

CO/N=C(/C(=O)OC)c1cccc(C)c1CO/N=C(\C)c1cc(C(F)F)nc(C)n1 [Example 60]
PHAKPA Disease level (%) P2 at 4 ppm [1]: 70% | PHAKPA Disease level (%) P2 at 16 ppm [1]: 23% | PHAKPA Disease level (%) P6 at 4 ppm [2]: 70% | PHAKPA Disease level (%) P6 at 16 ppm [2]: 20%

C#Cc1cnc(/C(C)=N/OCc2c(C)cccc2/C(=N\OC)C(=O)NC)s1 [Example 61]
PHAKPA Disease level (%) P2 at 4 ppm [1]: 90% | PHAKPA Disease level (%) P2 at 16 ppm [1]: 33% | PHAKPA Disease level (%) P6 at 4 ppm [2]: 100% | PHAKPA Disease level (%) P6 at 16 ppm [2]: 100%

CNC(=O)/C(=N/OC)c1cccc(C)c1CO/N=C(\C)c1cc(C(F)F)nc(C)n1 [Example 62]
PHAKPA Disease level (%) P2 at 4 ppm [1]: 48% | PHAKPA Disease level (%) P2 at 16 ppm [1]: 7% | PHAKPA Disease level (%) P6 at 4 ppm [2]: 67% | PHAKPA Disease level (%) P6 at 16 ppm [2]: 12%

CNC(=O)/C(=N/OC)c1cccc(C)c1CO/N=C(\C)c1cc(C#N)cc(Cl)n1 [Example 63]
PHAKPA Disease level (%) P2 at 4 ppm [1]: 43% | PHAKPA Disease level (%) P2 at 16 ppm [1]: 11% | PHAKPA Disease level (%) P6 at 4 ppm [2]: 70% | PHAKPA Disease level (%) P6 at 16 ppm [2]: 5%
